Assay: Tail-flick Agonist Test
Type: in vivo
Settings: rats; no ED50 calculable

Row | Compound | separation of agonist and toxic effects
1 | Nc1ccc2c(c1)N1CCN(CC3CC3)C(C2)C1 (racemic) [Example 1D, 4-cyclopropylmethyl-9-amino-3,4,5,6-tetrahydro-2H-1,5-methano-1,4-benzodiazocine] | none showed sufficient separation of agonist and toxic effects
2 | CCS(=O)(=O)O.CCS(=O)(=O)O.Nc1ccc2c(c1)N1CCN(CC3CC3)C(C2)C1 (stereo not shown) [Example 1E, 4-cyclopropylmethyl-9-amino-3,4,5,6-tetrahydro-2H-1,5-methano-1,4-benzodiazocine diethanesulfonate] | none showed sufficient separation of agonist and toxic effects
3 | CCNc1ccc2c(c1)N1CCN(CC3CC3)C(C2)C1.Cl.Cl (stereo not shown) [Example 3B, 4-cyclopropylmethyl-9-ethylamino-3,4,5,6-tetrahydro-2H-1,5-methano-1,4-benzodiazocine dihydrochloride] | none showed sufficient separation of agonist and toxic effects
4 | CCCCNc1ccc2c(c1)N1CCN(CC3CC3)C(C2)C1 (stereo not shown) [Example 4B, 4-cyclopropylmethyl-9-butylamino-3,4,5,6-tetrahydro-2H-1,5-methano-1,4-benzodiazocine] | none showed sufficient separation of agonist and toxic effects

From patent US4299830A, “1,5-Methano-1,4-benzodiazocines, intermediates therefor, and method of use and compositions thereof” (Sterling Drug Inc., priority 1980, dated 1981)
